Laboratory results published in US6991685B2, “Low temperature cleaning” (Ecolab Inc., priority 2003, dated 2006).
Read-outs that look alike come from different tables or passages of the source.

Test system: Lactobacillus malefermentans (ATCC 11305)
Details: 185 F. water, 5-min contact

Measured: Filter Survivors

O [185 F. Water, water]
<1 CFU: BUNA N coupon, pH 2.3 phosphoric acid 104 F. 2 weeks | BUNA N coupon, pH 13 caustic 185 F. 2 weeks | Silicon Rubber coupon, pH 2.3 phosphoric acid 104 F. 2 weeks | Silicon Rubber coupon, pH 13 caustic 185 F. 2 weeks | Stainless Steel coupon, no pre-treatment
